Tested on: C57BL/6 mice
Assay: Lung endothelial permeability after transfusion of aged pRBCs (Evans blue method)
Format: in vivo, mouse
Conditions: 200 μl IV aged pRBCs treated with 125 μM AT, 6 hours after transfusion
Procedure: Male C57BL/6 mice aged 8-10 weeks were purchased from Jackson Laboratories, fed standard laboratory diet and water ad libitum, and acclimated for 1 week in climate-controlled conditions with 12 hours light-dark cycles prior to use. Asm-deficient mice (Asm^−/−) on a C57BL/6 background were used and compared to syngenic C57Bl/6 wild type mice as controls. All experiments were approved by the Institutional Animal Care and Use Committee at the University of Cincinnati. To study the effect of AT treatment on lung inflammation following blood transfusion, mice received 200 μl IV injections of pRBCs or MPs. Lungs were taken 6 hours after transfusion for either histologic or Evans blue evaluation. Histologic lung sections were examined for evidence of lung edema with hematoxylin and inflammatory cells with anti-Gr1 antibodies (AbD Serotec, Raleigh, NC). Tight junction integrity was assessed by staining lung slides with Cy3-conjugated anti-ZO1 (Jackson ImmunoResearch, West Grove, PA). Endothelial cell permeability was assessed using the Evans blue method (source). In brief, mice were weighed and injected with 30 mg/kg Evans blue. […] Evans blue extraction calculated by measuring the optical density at 620 nm and comparing to a standard curve, and values were normalized to dry lung weight.

CN(C)CCC=C1c2ccccc2CCc2ccccc21 [AT, Amitriptyline]
Evans blue capillary leak in the lungs: an effect not seen

Source: patent publication US12550885B2, “Red blood cell storage solutions, solution additives, and methods for improving the storage of red blood cells” (University of Cincinnati, priority 2016, dated 2026)
